Earlier results, collected in US20150073330A1, “ALZHEIMER'S DISEASE TREATMENT WITH MULTIPLE THERAPEUTIC AGENTS DELIVERED TO THE OLFACTORY REGION THROUGH A SPECIAL DELIVERY CATHETER AND IONTOPHORESIS” (Wedge Therapeutics, LLC, priority 2012, published 2015).

Legend:
[1] = test system: patients with Alzheimer's; conditions: cited from earlier work
[2] = in vivo; cited from earlier work

## Bapineuzumab: humanized monoclonal antibody that seeks to clear brain cells of amyloid plaque
[1]; patients receiving 2 mg
  MRI finding at the highest dose: swelling of the brain tissue due to fluid accumulation (vasogenic edema)
[1]; patients who lacked a genetic marker
  mental decline, Phase II trial: slowed the mental decline
[1]; subjects receiving either 0.5 or 1 mg
  health risks at lower doses: No health risks found
[2]
  crossing of the blood brain barrier: crosses the blood brain barrier
